The data set concerns hepatocytes. As to conditions: result in words only.

With “N,6N.6N' Tris (20) Lys-Tyr-Lys [trivalent derivative]”, the “inhibiting the binding of lactose to hepatocytes” value is listed as “especially effective”.

These data come from patent US5567683A, “Substituted lactose and lactosamine derivatives as cell adhesion inhibitors” (Glycomed Incorporated, priority 1994, dated 1996).
